Patent US20240197877A1 (published 2024)
Positions count from the first letter of the chain named.

T1: MYO1G (HA-2 REF; MYO1G(V) variant) peptide on HLA-A*02:01 (human)
T1 peptide: YIGEVLVSV

B1: HA2-MJ1-DP2 (TCR, V domains shown)
Valpha: AQSVAQPEDQVNVAEGNPLTVKCTYSVSGNPYLFWYVQYPNRGLQFLLKYITGDNLVKGSYGFEAEFNKSQTSFHLKKPSALVSDSALYFCAVRDPGNYGQNFVFGPGTRLSVLP
Vbeta: DTGVSQDPRHKITKRGQNVTFRCDPISEHNRLYWYRQTLGQGPEFLTYFQNEAQLEKSRLLSDRFSAERPKGSFSTLEIQRTEQGDSAMYLCASSLLGHTQETQYFGPGTRLLVL
B2: HA2-MJ2-DP1 (TCR, V domains shown)
Valpha: ELKVEQNPLFLSMQEGKNYTIYCNYSTTSDRLYWYRQDPGKSLESLFVLLSNGAVKQEGRLMASLDTKARLSTLHITAAVHDLSATYFCAVRMGYGGSQGNLIFGKGTKLSVKP
Vbeta: GAGVSQSPRYKVAKRGQDVALRCDPISGHVSLFWYQQALGQGPEFLTYFQNEAQLDKSGLPSDRFFAERPEGSVSTLKIQRTQQEDSAVYLCASSFASQPQHFGDGTRLSIL
B3: HA2-MJ14-DP317 (TCR, V domains shown)
Valpha: AQTVTQSQPEMSVQEAETVTLSCTYDTSESDYYLFWYKQPPSRQMILVIRQEAYKQQNATENRFSVNFQKAAKSFSLKISDSQLGDAAMYFCAYRSERYSTLTFGKGTMLLVSP
Vbeta: SQTIHQWPATLVQPVGSPLSLECTVEGTSNPNLYWYRQAAGRGLQLLFYSVGIGQISSEVPQNLSASRPQDRQFILSSKKLLLSDSGFYLCAWSVPYLAGGKRPDTQYFGPGTRLTVL
B4: HA2-MJ2-DP22 (TCR, V domains shown)
Valpha: GQQLNQSPQSMFIQEGEDVSMNCTSSSIFNTWLWYKQEPGEGPVLLIALYKAGELTSNGRLTAQFGITRKDSFLNISASIPSDVGIYFCAGPFGYGGSQGNLIFGKGTKLSVKP
Vbeta: GAGVSQSPRYKVAKRGQDVALRCDPISGHVSLFWYQQALGQGPEFLTYFQNEAQLDKSGLPSDRFFAERPEGSVSTLKIQRTQQEDSAVYLCASSLIGRGWDGYTFGSGTRLTVV
B5: HA2-MJ7-DP19 (TCR, V domains shown)
Valpha: ELKVEQNPLFLSMQEGKNYTIYCNYSTTSDRLYWYRQDPGKSLESLFVLLSNGAVKQEGRLMASLDTKARLSTLHITAAVHDLSATYFCAVDTNMRFGAGTRLTVKP
Vbeta: NAGVTQTPKFQVLKTGQSMTLQCAQDMNHNSMYWYRQDPGMGLRLIYYSASEGTTDKGEVPNGYNVSRLNKREFSLRLESAAPSQTSVYFCASSEIQGEKLFFGSGTQLSVL
B6: HA2-MJ3-DP12 (TCR, V domains shown)
Valpha: TQLLEQSPQFLSIQEGENLTVYCNSSSVFSSLQWYRQEPGEGPVLLVTVVTGGEVKKLKRLTFQFGDARKDSSLHITAAQTGDTGLYLCAGAGMNYGGSQGNLIFGKGTKLSVKP
Vbeta: NAGVMQNPRHLVRRRGQEARLRCSPMKGHSHVYWYRQLPEEGLKFMVYLQKENIIDESGMPKERFSAEFPKEGPSILRIQQVVRGDSAAYFCASSLTSGRLNEQFFGPGTRLTVL
B7: HA2-MJ9-DP5 (TCR, V domains shown)
Valpha: KQEVTQIPAALSVPEGENLVLNCSFTDSAIYNLQWFRQDPGKGLTSLLLIQSSQREQTSGRLNASLDKSSGRSTLYIAASQPGDSATYLCAVRPKNYGGSQGNLIFGKGTKLSVKP
Vbeta: B6 Vbeta with R100S, L101S
B8: HA2-MJ1-DP57 (TCR, V domains shown)
Valpha: QKEVEQNSGPLSVPEGAIASLNCTYSDRGSQSFFWYRQYSGKSPELIMFIYSNGDKEDGRFTAQLNKASQYVSLLIRDSQPSDSATYLCAVNKGGGTSYGKLTFGQGTILTVHP
Vbeta: EAQVTQNPRYLITVTGKKLTVTCSQNMNHEYMSWYRQDPGLGLRQIYYSMNVEVTDKGDVPEGYKVSRKEKRNFPLILESPSPNQTSLYFCASSWTLNTEAFFGQGTRLTVV
B9: HA2-MJ2-DP8 (TCR, V domains shown)
Valpha: KNEVEQSPQNLTAQEGEFITINCSYSVGISALHWLQQHPGGGIVSLFMLSSGKKKHGRLIATINIQEKHSSLHITASHPRDSAVYICAVDGTGGTKKTSYDKVIFGPGTSLSVIP
Vbeta: KAGVTQTPRYLIKTRGQQVTLSCSPISGHRSVSWYQQTPGQGLQFLFEYFSETQRNKGNFPGRFSGRQFSNSRSEMNVSTLELGDSALYLCASSLRGLAAYNEQFFGPGTRLTVL
B10: HA2-MJ1-DP1 (TCR, V domains shown)
Valpha: SQELEQSPQSLIVQEGKNLTINCTSSKTLYGLYWYKQKYGEGLIFLMMLQKGGEEKSHEKITAKLDEKKQQSSLHITASQPRHAGIYLCGARKKNYGGSQGNLIFGKGTKLSVKP
Vbeta: GAGVSQSPRYKVAKRGQDVALRCDPISGHVSLFWYQQALGQGPEFLTYFQNEAQLDKSGLPSDRFFAERPEGSVSTLKIQRTQQEDSAVYLCASSSGPTSPQHFGDGTRLSIL
B11: HA2-MJ1-DP37 (TCR, V domains shown)
Valpha: EDKVVQSPLSLVVHEGDTVTLNCSYEVTNFRSLLWYKQEKKAPTFLFMLTSSGIEKKSGRLSSILDKKELFSILNITATQTGDSAIYLCAVEAGYGGSQGNLIFGKGTKLSVKP
Vbeta: NAGVMQNPRHLVRRRGQEARLRCSPMKGHSHVYWYRQLPEEGLKFMVYLQKENIIDESGMPKERFSAEFPKEGPSILRIQQVVRGDSAAYFCASSPRTGGIGNTIYFGEGSWLTVV

Target: T1, MYO1G (HA-2 REF; MYO1G(V) variant) …
Experiment: multimer staining

binding result	Binder
recognises	B1
recognises	B2
recognises	B3
recognises	B4
recognises	B5
recognises	B6
recognises	B7
recognises	B8
recognises	B9
recognises	B10
recognises	B11
